This is a sample that favours compounds with a hit; in the whole collection about 0.72% have one here.
Mito fusion yeast: mitochondrial division inhibition or fusion activation; S. cerevisiae fusion-defective mutant growth rescue, CellTiterGlo 48 h; Potency, µM (highest dose often 46.1 µM), actives largely listed as activators; actives 0.23% (n = 320,000); AID 485298; further: nearly all actives have a fitted effect of over 45% in size
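Luminescent cell viability in 1536-well qHTS format served as the measure of rescued growth in ts fusion-mutant S. cerevisiae cultured on non-fermentable YPEG for 48 hours at 37C.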
RXFP1 antag: antagonists of human relaxin receptor RXFP1 | activity change, negative = inhibition, % at 57.5 µM | actives 0.59% (n = 350,000) | Q9HBX9 | HEK293-RXFP1, relaxin-stimulated cAMP HTRF, 30 min; stronger effect = lower value;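 active means activity change of -60% or lower, but not beyond a set lower limit; inconclusive means change between -60% and -40%, or beyond the set limit; inactive means change above -40%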
ERG-DNA inh: inhibitors of human ERG Ets domain-DNA interaction; P11308; fluorescence polarization, His-ERG Ets domain / labelled DNA; actives 0.028% (n = 370,000); AID 624246; Potency, µM (titrated, usually from 76.9 µM), usual class: inhibitors; active means well fitted inhibition curve with a large enough effect in the polarisation, with a control signal flat; inconclusive means small, poorly fitted or top-dose-only effect, or effect the other way, or a change in a side signal; inactive means no such curve, though single readings can be large or run the other way; the % refers to the polarisation;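 further: polarization taken with two DNA probes labelled with fluorescein and Texas red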
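His-tagged ERG Ets domain (1 uM in the protein solution; 300mM KCl, 50mM Tris-HCl, 1mM EDTA, 1mM DTT, pH 7.5) received compound, then a probe mix of 5 nM fluorescein-DNA and 100nM Texas-615-DNA. Fluorescence polarization was read for both dyes.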
S-ASM inh: human S-ASM enzyme inhibition | P17405 | placental ASM, HMU-PC fluorogenic substrate, 60 min | Potency, µM (doses to about 57.5 µM), usual class: inhibitors | actives 0.006% (n = 340,000) | AID 504937
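Fluorescence read-out (Ex 386 nm, Em 447 nm) after stopping the reaction at pH 10. Enzyme: ASM from human placenta; substrate HMU-PC0, 9 uM final; 60 min, 37 °C. Compound preincubation 10 min, ambient temperature.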
RXFP1 agonist: RXFP1 (human) receptor agonism; Potency, µM (doses to about 57.5 µM), usual class: activators; actives 0.3% (n = 370,000); AID 2676; Q9HBX9; HEK293T-RXFP1 cAMP TR-FRET, 30 min; response scale: percent of porcine relaxin response, buffer zero; further: nearly all actives have a fitted effect of over 60% in size
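HEK293 cells stably expressing RXFP1, treated 30 min at 37C with compounds plus PDE4 inhibitor Ro 20174; cAMP measured by HTRF TR-FRET. Normalized to buffer and 29 nM porcine relaxin; EC50 by Hill fit.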
miR-21 FLuc: miR-21 reporter, rising signal | 340,000 tested, under 10 active | AID 2288 | HeLa miR-21 FLuc reporter, luciferase, 48 h | Potency, µM (titrated, usually from 38.3 µM); active = well fitted rising curve with a large enough effect; inconclusive = small, poorly fitted or top-dose-only effect; inactive = no such curve, though single readings can be large or run the other way;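 further: miR-21 action dims this reporter so a rising signal means less miR-21 action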
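HeLa cells stably expressing CMV-driven firefly luciferase with a downstream miR-21 binding sequence, endogenously expressing miR-21, were treated with titrations (up to about 40uM final) for 48 hours at 37 degree Celsius. Luciferase luminescence was read after lysis.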
Numbers stand for hits; n = inactive; u = inconclusive; x = not tested or not shown; ! = repeats disagree. Unless noted, the call rests on the fitted dose curve; in most records, active means well fitted curve in the direction sought with a large enough effect; inconclusive means small, poorly fitted or top-dose-only effect, or another doubt; inactive means no such curve, though single readings can be large; an effect the other way counts as inactive or inconclusive.

SMILES | Mito fusion yeast | RXFP1 antag | ERG-DNA inh | S-ASM inh | RXFP1 agonist | miR-21 FLuc
Cc1ccc(-n2ncc3c(NCCc4ccccc4)ncnc32)cc1 | x | n | n | x | n | n
CSCC[C@H](NC(=O)[C@H](Cc1c[nH]c2ccccc12)NC(=O)CCNC(=O)OC(C)(C)C)C(=O)N[C@@H](CC(=O)O)C(=O)N[C@@H](Cc1ccccc1)C(N)=O | x | n | x | x | x | x
CC(=O)CC/C=C(\C)CC/C=C(/C)CC/C=C(\C)CCC=C(C)C | x | n | x | x | x | x
O=C(Nc1ccccc1)c1ccc(-c2ccc(Br)cc2)o1 | 15.8µM | n | n | n | n | n
COC(=O)c1c(NC(=O)C(C)(C)C)sc2c1CCN(Cc1ccccc1)C2 | n | -68.4 | n | n | n | n
CC(=O)c1cccc(OCc2cc(C(=O)N3CCC(N4CCCCC4)CC3)no2)c1 | n | -81.0 | n | n | n | n
CC(=O)c1cccc(OCc2cc(C(=O)N3CCSCC3)no2)c1 | n | n | n | n | n | n
CCCCOC(=O)c1ccc(NC(=O)c2c(Cl)ccc(Cl)c2OC)cc1 | 15.8µM | n | n | n | n | n
COc1cc(S(N)(=O)=O)cc(C(=O)O)c1OC | x | n | x | x | x | x
Cn1cccc1-c1cc(C(=O)N/N=C/c2cc(Br)ccc2O)[nH]n1 | n | -61.5 | n | n | n | n
CSc1ccc(C(=O)c2[nH]c(=O)[nH]c2C)cc1 | 13µM! | n | n | n | n | x
Cc1ccc(Cl)c(OCC(O)CNC(C)(C)C)c1 (stereo unspecified) | x | n | x | x | x | x
Cn1c(=O)c2c(SCC(=O)NCC3CCCO3)nc(-c3cccc(F)c3)nc2n(C)c1=O (stereo unspecified) | x | n | n | x | n | n
COc1ccc(CNC(=O)c2cc3c(=O)n4cccc(C)c4nc3n(CC3CCCO3)c2=N)cc1 (stereo unspecified) | n | n | n | n | u | n
COc1ccc(CCn2c(=N)c(C(=O)NCC3CCCO3)cc3c(=O)n4cccc(C)c4nc32)cc1 (stereo unspecified) | n | n | n | n | 17.8µM | n
C#CCN1C(C)=C(C(=O)OC)C(c2cccc([N+](=O)[O-])c2)C(C(=O)OCC)=C1C (stereo unspecified) | 4.61µM! | x | n | n | n | x
CCN(CC)c1ccc(NC(=O)c2ccc(=O)[nH]c2)cc1S(=O)(=O)Nc1ccccc1OC | n | n | n | n | n | n
COc1cccc(-c2nc(SCC(=O)Nc3nc(-c4ccccc4)c(C)s3)[nH]c(=O)c2C#N)c1 | n | -70.8 | n | n | n | n
N#Cc1c(-c2ccccc2)nc(SCC(=O)NC2CCCCC2)[nH]c1=O | n | n | n | n | 22.4µM | n
CCOc1ccc2nc(NC(=O)CSc3nc(-c4ccccc4)c(C#N)c(=O)[nH]3)sc2c1 | n | n | n | n | u | n
CN1Cc2cc(C(=O)N3CCC(C4CCNCC4)CC3)ccc2N[C@@H](CC(=O)O)C1=O | x | n | x | x | x | x
S=c1nc[nH]c2c1[nH]c1ccc(Cl)cc12 | n | n | n | n | 3.16µM | n
O=c1c2[nH]c3ccc(Cl)cc3c2ncn1CCN1CCCCC1 | n | n | n | n | n | n
S=c1nc[nH]c2c1[nH]c1ccccc12 | n | n | n | n | 7.08µM | n
O=S(=O)(c1ccccc1)N1CCC(Oc2ccc(-n3cnnn3)cc2)CC1 | 35.5µM | n | n | n | n | n
SMILES | Mito fusion yeast | RXFP1 antag | ERG-DNA inh | S-ASM inh | RXFP1 agonist | miR-21 FLuc
Cc1nn(CC(=O)Nc2ccc(OC(F)(F)F)cc2)c(=O)c2c(C)n(-c3ccc(Cl)cc3)nc12 | x | n | n | x | n | n
Cc1ccc(NS(=O)(=O)c2c(C)nc3sccn3c2=O)cc1 | n | -79.5 | n | n | n | n
Cc1ccccc1Nc1nc(N)nc(CSc2nc3ccccc3s2)n1 | 20µM | x | n | n | n | n
Cc1ccc(Nc2nc(N)nc(CSc3nc4ccccc4s3)n2)cc1 | n | n | n | n | n | n
CCN(c1ccccc1)S(=O)(=O)c1ccc(NC(=O)c2nc(SC(C)C)ncc2Cl)cc1 | x | x | n | x | n | n
Cn1c(N2CCN(S(=O)(=O)c3ccc(F)cc3)CC2)nc2ccccc21 | 11.2µM | n | n | n | n | n
CCCCN(CCCC)C(C(N)=O)c1ccc(OC)cc1 (stereo unspecified) | x | n | x | x | x | x
CC(=O)c1ccc2c(c1)C1C=CCC1C(c1cc3c(cc1Br)OCO3)N2 (stereo unspecified) | 12.6µM | x | n | n | n | x
Cc1ccc(NC(=O)CSc2nnc(-c3cc4occc4n3C)n2-c2ccccc2C)c(Cl)c1 | x | n | n | x | n | n
OC[C@H]1O[C@@H](OCCc2ccc(O)cc2)[C@H](O)[C@@H](O)[C@H]1O | x | n | x | x | x | x
C=CCOc1ccc(C2C(C(=O)c3ccco3)=C(O)C(=O)N2c2nnc(C)s2)cc1 (stereo unspecified) | n | n | n | n | 14.1µM | n
COc1ccc(C2C(C(=O)c3ccco3)=C(O)C(=O)N2c2nnc(C)s2)cc1 (stereo unspecified) | n | n | n | n | u | n
CC(=O)c1cccc(NC(=O)C(C)OC(=O)CCN=C2NS(=O)(=O)c3ccccc32)c1 (stereo unspecified) | n | n | n | x | n | x
O/C(=C\c1nc2ccccc2nc1/C=C(\O)c1ccccc1)c1ccccc1 | n | -111.6 | n | n | n | n
O=c1oc2ccccc2nc1/C=C(\O)c1ccccc1 | n | n | n | n | n | n
O=C(/C=C/c1ccccc1)NNC(=O)c1cccc(Cl)c1 | n | n | n | n | n | n
O=C(C=Cc1cccc(Cl)c1)c1ccccc1 | x | -61.6 | n | n | x | x
CCSc1nnc(-c2ccccc2SC)o1 | n | n | n | n | 22.4µM | n
COc1ccnc2c1CCCCC2S(=O)c1nc2ccccc2[nH]1 (stereo unspecified) | x | n | x | x | x | x
N#C/C(=C\c1ccccc1[N+](=O)[O-])c1nc(C2CC2)cs1 | 20µM | n | n | n | n | n
N#C/C(=C/c1ccccc1[N+](=O)[O-])c1nc(C2CC2)cs1 | u | n | n | n | n | n
Cn1c2c(c(=O)n3ncnc13)CCCC2 | n | n | n | n | 22.4µM | n
O=C(Cn1c2c(c(=O)n3ncnc13)CCC2)N/N=C/c1ccc(Cl)cc1 | n | n | n | n | n | n
Cc1cc2[nH]c(=O)c(=O)[nH]c2cc1S(=O)(=O)N1CCN(c2cccc(Cl)c2)CC1 | n | n | n | 20µM | n | n
Cc1cc2[nH]c(=O)c(=O)[nH]c2cc1S(=O)(=O)N1CCN(c2ccccc2F)CC1 | n | n | n | n | n | n
Cc1cc2[nH]c(=O)c(=O)[nH]c2cc1S(=O)(=O)N1CCN(c2cccc(C)c2C)CC1 | n | n | n | u | n | n

Source: PubChem
